Values of other authors in patent publication US6347239B1, “Method of evaluating the efficacy of drug on brain nerve cells” (priority 1998, dated 2002).

Tested on: patients with ALS
Settings: phase III clinical trials (Bensimon 1994; Lacomblez 1996); cited from earlier work

## Nc1nc2ccc(OC(F)(F)F)cc2s1 [RILUZOLE, 2-amino-6-trifluoromethoxy-benzothiazole]
  survival of patients with ALS: prolong the life
